Results published in patent EP0726257A1, “1-(Hetero)Arylvinyl-5H-2,3-benzodiazepine derivatives useful for the treatment of central nervous system disorders, and benzopyrylium intermediates for their preparation” (EGIS GYOGYSZERGYAR RT., priority 1995, dated 1996).

Molecular target: homophthalazine binding site
Test: Displacement of 3H-girisopam from the homophthalazine binding site in rat brain striatal membrane preparation
Settings: displacing 5 nM 3H-girisopam
Method: The binding affinity of 1-[2'-(substituted) vinyl]-5H-2,3-benzodiazepine derivatives according to the invention and of the reference substances to the homophthalazine binding site was measured by displacing 5 nM of ^3H-l-(3'-〈chloro〉-phenyl)-4-(methyl)-7,8-di-(methoxy)-5H-2,3-benzodiazepine [^3H-girisopam] in rat brain striatal membrane preparation. Ki values were calculated according to the following equation: Ki = IC50 :(1 +([L])/(KD)), [formula] wherein KD is the dissociation constant of the labelled ligand-receptor complex, [L] is the concentration of the labelled ligand and IC50 is the half maximal inhibitory concentration of the test compound.

`COc1cc2c(cc1OC)C(c1ccc(N)cc1)=NN=C(C)C2` [nerisopam, 1-(4'-〈amino〉-phenyl)-4-(methyl)-7,8-di-(methoxy)-5H-2,3-benzodiazepine, reference compound] was tested, and the Ki was 16 nM.
